Experimental data taken from PubChem BioAssay AID873 (PCMD, 2007).
Only a part is listed here, and it is no random draw. Some results for these compounds are left out of this collection, so the calls shown say nothing about other tests. The source made the active and inactive calls.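 The calls were made as follows: active = inhibition of 40% or more; inactive = the rest.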

The chains behind the UniProt entries cited, without tags or fusion partners. Residues count along the entry.
UniProt Q9Y337, 67-293 limits assumed: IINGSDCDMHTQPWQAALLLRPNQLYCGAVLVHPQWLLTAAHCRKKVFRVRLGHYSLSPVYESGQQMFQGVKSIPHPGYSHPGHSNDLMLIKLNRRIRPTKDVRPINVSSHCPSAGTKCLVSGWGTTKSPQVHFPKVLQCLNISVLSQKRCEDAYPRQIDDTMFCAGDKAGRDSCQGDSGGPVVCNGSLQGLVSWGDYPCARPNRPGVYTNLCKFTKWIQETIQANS

These compounds were tested against Kallikrein-5 (Homo sapiens) (UniProt Q9Y337) (assay: human KLK5 protease inhibitors, primary screen, biochemical, 1536-well (AID 873;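 also: 0% = enzyme controls without compound and 100% = no-enzyme blanks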)). Settings: recombinant hK5, fluorogenic AMC substrate cleavage; at 5 µM; hits give high values.

Row | Structure (SMILES) | inhibition
1 | COc1cccc(C(=O)NCC2(N3CCCCC3)CCCCC2)c1 | inactive: 7.18%
2 | CN(C)c1cccc(C(=O)NCC2(N(C)C)CCCCC2)c1 | inactive: 16.1%
3 | COc1ccc(Br)c(C(=O)NCC2(N3CCCCC3)CCCCC2)c1 | inactive: -0.17%
4 | O=C(OC1CN2CCC1CC2)C(CO)(c1ccccc1)c1ccccc1 (stereo unspecified) | inactive: -18.8%
5 | CCN(CC)CC(C)C(C)OC(=O)C(O)(c1ccccc1)c1ccccc1 (stereo unspecified) | inactive: 0.7%
6 | CC(C)N1C(=O)CC2(CCN(CCOC(=O)C(O)(c3ccccc3)c3ccccc3)CC2)C1=O | inactive: -5.81%
7 | O=C(NCC1(N2CCCCC2)CCCCC1)c1cc([N+](=O)[O-])ccc1Cl | inactive: -0.63%
8 | CCN1CCCC(OC(=O)C2(O)c3ccccc3C=Cc3ccccc32)C1 (stereo unspecified) | inactive: -13.8%
9 | C=CCN1CCN(CCOC(=O)C(O)(c2ccccc2)c2ccccc2)CC1 | inactive: 0.59%
10 | CN(C)C1CCCC1OC(=O)C(O)(c1ccccc1)c1ccccc1 (stereo unspecified) | inactive: -6.26%
11 | Cc1ccccc1C(=O)NCC1(N2CCCCC2)CCCCC1 | inactive: -5.57%
